Laboratory results from PubChem BioAssay AID1671202 (University of Kansas High Throughput Screening Laboratory, 2021).
This is a selection; strong and weak results do not stand in their true shares. The source made the active and inactive calls. Rule as the data show it: active = inhibition above about 50%; inactive = the rest.

Amino acid sequences for entries named in this document (tags omitted).
UniProt P42858, whole entry, looked up, stated change not applied: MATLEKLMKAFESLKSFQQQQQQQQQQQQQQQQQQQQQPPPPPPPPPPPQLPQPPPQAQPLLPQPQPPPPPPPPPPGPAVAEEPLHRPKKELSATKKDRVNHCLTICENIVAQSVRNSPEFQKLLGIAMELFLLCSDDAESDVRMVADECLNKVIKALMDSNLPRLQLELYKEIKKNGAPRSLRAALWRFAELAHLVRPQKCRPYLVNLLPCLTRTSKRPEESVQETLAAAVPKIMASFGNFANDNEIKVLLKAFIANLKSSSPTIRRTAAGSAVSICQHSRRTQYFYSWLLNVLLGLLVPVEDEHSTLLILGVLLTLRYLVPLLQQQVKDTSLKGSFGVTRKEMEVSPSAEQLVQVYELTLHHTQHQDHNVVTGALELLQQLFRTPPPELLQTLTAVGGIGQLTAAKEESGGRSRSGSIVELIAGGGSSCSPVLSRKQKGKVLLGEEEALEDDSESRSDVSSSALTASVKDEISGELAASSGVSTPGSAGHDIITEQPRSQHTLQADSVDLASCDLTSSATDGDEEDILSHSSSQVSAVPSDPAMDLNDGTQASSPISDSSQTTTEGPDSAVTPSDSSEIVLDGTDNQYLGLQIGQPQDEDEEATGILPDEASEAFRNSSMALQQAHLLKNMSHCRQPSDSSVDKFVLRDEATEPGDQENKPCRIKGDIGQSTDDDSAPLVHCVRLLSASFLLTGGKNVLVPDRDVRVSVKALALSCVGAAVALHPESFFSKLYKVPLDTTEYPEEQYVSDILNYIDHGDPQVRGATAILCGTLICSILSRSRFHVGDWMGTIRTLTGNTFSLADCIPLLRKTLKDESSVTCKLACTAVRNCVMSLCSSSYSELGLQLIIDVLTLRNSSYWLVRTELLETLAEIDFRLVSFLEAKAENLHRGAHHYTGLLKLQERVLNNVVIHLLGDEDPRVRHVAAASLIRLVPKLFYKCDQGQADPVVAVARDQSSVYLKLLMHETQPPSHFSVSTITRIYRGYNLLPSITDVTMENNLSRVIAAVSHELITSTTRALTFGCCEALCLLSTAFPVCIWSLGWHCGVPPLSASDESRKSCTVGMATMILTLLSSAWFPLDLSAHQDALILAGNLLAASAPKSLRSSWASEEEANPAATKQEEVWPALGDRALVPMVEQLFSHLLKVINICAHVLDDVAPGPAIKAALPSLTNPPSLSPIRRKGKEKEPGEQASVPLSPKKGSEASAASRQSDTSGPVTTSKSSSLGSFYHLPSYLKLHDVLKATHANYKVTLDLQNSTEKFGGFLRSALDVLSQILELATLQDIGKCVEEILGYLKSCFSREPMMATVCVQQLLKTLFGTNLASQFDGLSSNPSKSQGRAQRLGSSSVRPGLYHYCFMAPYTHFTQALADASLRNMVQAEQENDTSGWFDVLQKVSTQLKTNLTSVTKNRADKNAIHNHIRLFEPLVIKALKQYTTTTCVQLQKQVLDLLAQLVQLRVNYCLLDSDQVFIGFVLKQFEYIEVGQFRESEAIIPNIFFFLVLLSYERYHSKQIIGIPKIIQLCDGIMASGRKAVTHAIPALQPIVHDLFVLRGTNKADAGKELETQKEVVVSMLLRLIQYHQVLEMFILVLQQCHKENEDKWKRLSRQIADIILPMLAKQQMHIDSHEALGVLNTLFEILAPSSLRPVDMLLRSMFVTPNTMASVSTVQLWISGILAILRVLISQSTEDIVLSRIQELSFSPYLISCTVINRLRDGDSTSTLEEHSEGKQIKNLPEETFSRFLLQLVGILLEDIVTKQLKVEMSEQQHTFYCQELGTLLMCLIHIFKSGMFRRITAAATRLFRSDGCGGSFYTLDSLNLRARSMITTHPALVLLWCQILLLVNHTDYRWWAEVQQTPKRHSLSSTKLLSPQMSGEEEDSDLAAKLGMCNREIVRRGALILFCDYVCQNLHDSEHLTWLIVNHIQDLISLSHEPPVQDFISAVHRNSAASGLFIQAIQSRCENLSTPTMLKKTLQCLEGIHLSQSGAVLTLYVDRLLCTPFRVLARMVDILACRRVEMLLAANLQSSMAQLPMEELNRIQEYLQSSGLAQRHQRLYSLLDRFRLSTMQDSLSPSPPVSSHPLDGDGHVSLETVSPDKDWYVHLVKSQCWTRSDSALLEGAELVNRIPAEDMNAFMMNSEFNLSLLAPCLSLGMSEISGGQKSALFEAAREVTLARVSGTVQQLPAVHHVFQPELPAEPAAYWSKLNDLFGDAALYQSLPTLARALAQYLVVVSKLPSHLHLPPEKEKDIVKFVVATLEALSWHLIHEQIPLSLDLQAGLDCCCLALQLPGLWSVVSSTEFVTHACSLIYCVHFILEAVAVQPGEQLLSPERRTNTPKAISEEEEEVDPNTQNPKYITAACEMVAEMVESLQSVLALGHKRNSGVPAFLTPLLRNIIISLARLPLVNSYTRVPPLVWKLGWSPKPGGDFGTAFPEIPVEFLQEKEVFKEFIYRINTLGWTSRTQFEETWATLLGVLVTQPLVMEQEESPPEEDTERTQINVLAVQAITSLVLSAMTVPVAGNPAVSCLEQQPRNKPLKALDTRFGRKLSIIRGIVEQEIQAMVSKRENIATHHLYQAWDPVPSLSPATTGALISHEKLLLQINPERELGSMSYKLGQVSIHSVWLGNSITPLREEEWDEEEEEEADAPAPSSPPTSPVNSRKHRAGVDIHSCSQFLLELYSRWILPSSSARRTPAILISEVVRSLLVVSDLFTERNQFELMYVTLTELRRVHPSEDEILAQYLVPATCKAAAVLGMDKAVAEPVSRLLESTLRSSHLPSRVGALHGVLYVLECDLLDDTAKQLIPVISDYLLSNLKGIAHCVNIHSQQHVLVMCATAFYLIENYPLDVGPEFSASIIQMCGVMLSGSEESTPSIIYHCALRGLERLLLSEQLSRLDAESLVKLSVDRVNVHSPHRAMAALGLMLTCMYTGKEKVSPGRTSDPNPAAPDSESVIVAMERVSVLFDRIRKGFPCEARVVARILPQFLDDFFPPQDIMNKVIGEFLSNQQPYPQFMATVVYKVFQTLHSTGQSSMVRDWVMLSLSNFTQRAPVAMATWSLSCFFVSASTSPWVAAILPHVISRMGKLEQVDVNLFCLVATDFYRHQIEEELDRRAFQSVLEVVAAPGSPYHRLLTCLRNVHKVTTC

Target: Huntingtin (Homo sapiens) (UniProt P42858)
Assay: mutant huntingtin-calmodulin interaction inhibitors – biochemical, AlphaScreen, primary screen (AID 1671202);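 also: 0% = both proteins with DMSO and 100% = one protein alone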
Conditions: AlphaScreen His-mHTT/GST-CaM binding, luminescence; at 15 µM; stronger effect = higher value

| Structure (SMILES) | inhibition |
| --- | --- |
| O=[N+]([O-])c1ccc(NCCNc2ccc([N+](=O)[O-])cc2[N+](=O)[O-])c([N+](=O)[O-])c1 | inactive: -6.49% |
| Cc1ccc(C(=O)NC(SC2=NCCS2)C(Cl)(Cl)Cl)cc1 (stereo not drawn) | inactive: -5% |
| COc1cc(NC(=O)Cn2nc([N+](=O)[O-])c([N+](=O)[O-])c2C)cc([N+](=O)[O-])c1 | inactive: 13% |
| Nc1nonc1OCc1nonc1COc1nonc1N | inactive: -4% |
| O=C(NC(SC1=NCCS1)C(Cl)(Cl)Cl)c1ccc([N+](=O)[O-])cc1 (stereo not drawn) | inactive: 11% |
| O=C(c1cc([N+](=O)[O-])c(Cl)c([N+](=O)[O-])c1)c1cc([N+](=O)[O-])c(Cl)c([N+](=O)[O-])c1 | active: 100% |
| O=C(NC(Sc1ccc(Cl)cc1)C(Cl)(Cl)Cl)c1ccco1 (stereo not drawn) | inactive: -24% |
| COc1ccccc1OP(=O)(Nc1ccccn1)Oc1ccccc1OC | inactive: 1% |
| O=[N+]([O-])c1ccc(-n2ncc3c([N+](=O)[O-])cc([N+](=O)[O-])cc32)cc1 | inactive: 26% |
| O=[N+]([O-])c1ccc(Nc2ccc(Nc3ccc([N+](=O)[O-])cc3[N+](=O)[O-])cc2)c([N+](=O)[O-])c1 | inactive: 22.9% |
| Cc1c([N+](=O)[O-])c([N+](=O)[O-])nn1CC(=O)Nc1ccc([N+](=O)[O-])cc1Cl | inactive: 10% |
| O=C(NC1CCS(=O)(=O)C1)NP(=S)(Oc1ccccc1)Oc1ccccc1 (stereo not drawn) | inactive: -5% |
| Cc1c(N=Cc2ccc([N+](=O)[O-])s2)cc([N+](=O)[O-])cc1[N+](=O)[O-] | inactive: 34% |
| CCOP(=Nc1nc2ccccc2n2nnnc12)(OCC)OCC | inactive: -2% |
| COc1cc(Br)c([N+](=O)[O-])nc1[N+](=O)[O-] | inactive: 36% |
| O=C1CCC([N+](=O)[O-])([N+](=O)[O-])CN1CCCCN1CC([N+](=O)[O-])([N+](=O)[O-])CCC1=O | inactive: 1% |
| Cc1cc(SC(NC(=O)C(C)(C)C)C(Cl)(Cl)Cl)ncn1 (stereo not drawn) | active: 99% |
| O=C(Nc1nnc(N=Cc2ccc([N+](=O)[O-])s2)s1)c1ccc([N+](=O)[O-])cc1[N+](=O)[O-] | inactive: 7% |
| O=[N+]([O-])c1cccc2n[nH]nc12 | inactive: -3.4% |
| CC(=O)NC(Sc1ccc(Cl)cc1)C(Cl)(Cl)Cl (stereo not drawn) | inactive: -4% |
| N=C(N)SCC(Br)CN1C(=O)c2ccccc2C1=O (stereo not drawn) | inactive: -7% |
| CC(C)(c1cc([N+](=O)[O-])c(O)c([N+](=O)[O-])c1)c1cc([N+](=O)[O-])c(O)c([N+](=O)[O-])c1 | inactive: 28% |
| C1CN(c2nonc2-[n+]2nc3nonc3[n-]2)CCO1 | inactive: 8.1% |
| CN1C(=O)C2C(NC(=NCCN3CCOCC3)N2C)N(C)C1=O (stereo not drawn) | inactive: 0% |

| Structure (SMILES) | inhibition |
| --- | --- |
| Clc1n[nH]nc1-c1nn[nH]n1 | inactive: 0.62% |
| O=C(NC(Sc1ncccn1)C(Cl)(Cl)Cl)c1ccccc1 (stereo not drawn) | active: 80% |
| O=[N+]([O-])c1cc2c(c([N+](=O)[O-])c1)-c1c(cc([N+](=O)[O-])cc1[N+](=O)[O-])C2=Cc1ccccc1O | active: 91% |
| CC1C(=O)OC(C(Cl)(Cl)Cl)N1C(O)C(Cl)(Cl)Cl (stereo not drawn) | inactive: -4% |
| O=C(NC(Nc1cccc([N+](=O)[O-])c1)C(Cl)(Cl)Cl)c1cc([N+](=O)[O-])cc([N+](=O)[O-])c1 (stereo not drawn) | active: 74% |
| O=C(Nc1nnc(N=Cc2ccc([N+](=O)[O-])s2)s1)c1cc([N+](=O)[O-])cc([N+](=O)[O-])c1 | inactive: -4% |
| COC(=O)c1cc([N+](=O)[O-])[nH]n1 | inactive: -5.02% |
| O=[N+]([O-])c1cc(S(=O)(=O)c2cc([N+](=O)[O-])c(O)c([N+](=O)[O-])c2)cc([N+](=O)[O-])c1O | inactive: 1% |
| Cc1nc2c(C)cccc2c2c1CC(C(Cl)Cl)S2 (stereo not drawn) | inactive: -65% |
| O=[N+]([O-])c1ccc(-n2ncc3ccc([N+](=O)[O-])cc32)c([N+](=O)[O-])c1 | inactive: 5% |
| COc1ccc(N=Cc2c([N+](=O)[O-])cc([N+](=O)[O-])cc2[N+](=O)[O-])cc1 | inactive: 28% |
| Nc1nonc1OCCOc1nonc1N | inactive: -5.2% |
| O=C(Cn1cnc([N+](=O)[O-])n1)NCCO[N+](=O)[O-] | inactive: 0% |
| O=[N+]([O-])c1ccc(Oc2c([N+](=O)[O-])cc(C(F)(F)F)cc2[N+](=O)[O-])cc1 | active: 70% |
| Cc1ccc(S(=O)(=O)N2CC(=O)SC2C(Cl)(Cl)Cl)cc1 (stereo not drawn) | inactive: -7% |
| O=P(Nc1nccs1)(Oc1ccccc1)Oc1ccccc1 | inactive: -1% |
| CN(C)C(=O)NC(SC1=NCCS1)C(Cl)(Cl)Cl (stereo not drawn) | inactive: -2% |
| O=C(NC(Nc1ccc([N+](=O)[O-])cc1)C(Cl)(Cl)Cl)c1cc([N+](=O)[O-])cc([N+](=O)[O-])c1 (stereo not drawn) | active: 98% |
| Cc1cc(C)nc(SC(NC(=O)c2ccccc2)C(Cl)(Cl)Cl)n1 (stereo not drawn) | active: 54% |
| O=[N+]([O-])c1ccc(C(O)CNc2c([N+](=O)[O-])cc(C(F)(F)F)cc2[N+](=O)[O-])cc1 (stereo not drawn) | active: 63% |
| COc1cccc(OP(=O)(Nc2ccccn2)Oc2cccc(OC)c2)c1 | inactive: 0% |
| Cc1c(N=Cc2ccc([N+](=O)[O-])cc2)cc([N+](=O)[O-])cc1[N+](=O)[O-] | inactive: 13% |
| CC1(C)SC2N(C(=O)C2(Br)Br)C1C(=O)O (stereo not drawn) | inactive: 1% |
| CN1CC(=O)NC1=NP(=O)(OCc1ccccc1)OCc1ccccc1 | inactive: -1% |
